From patent US20050209278A1, “Piperidinyl- and piperazinyl-sulfonylmethyl hydroxamic acids and their use as protease inhibitors” (priority 2002, published 2005)

Protein sequences, listed by entry. Tags and fused reporters are not part of them. Residues count along the entry.
UniProt P08253, 110-660 limits assumed: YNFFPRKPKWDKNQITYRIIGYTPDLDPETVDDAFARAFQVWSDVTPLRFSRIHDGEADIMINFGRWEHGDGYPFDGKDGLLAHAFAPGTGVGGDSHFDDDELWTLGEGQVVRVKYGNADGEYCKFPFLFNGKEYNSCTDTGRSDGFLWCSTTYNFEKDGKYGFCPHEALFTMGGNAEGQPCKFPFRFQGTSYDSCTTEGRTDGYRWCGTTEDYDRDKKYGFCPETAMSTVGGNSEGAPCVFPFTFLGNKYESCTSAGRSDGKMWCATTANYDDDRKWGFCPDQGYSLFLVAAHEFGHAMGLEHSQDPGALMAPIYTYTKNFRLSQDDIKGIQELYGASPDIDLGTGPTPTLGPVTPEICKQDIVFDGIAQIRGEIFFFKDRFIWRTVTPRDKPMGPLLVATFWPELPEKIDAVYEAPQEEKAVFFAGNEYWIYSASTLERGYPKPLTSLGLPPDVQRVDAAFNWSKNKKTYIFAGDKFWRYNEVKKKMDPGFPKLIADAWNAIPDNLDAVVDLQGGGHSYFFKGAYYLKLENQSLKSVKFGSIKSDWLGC
UniProt P03956, 100-469 limits assumed: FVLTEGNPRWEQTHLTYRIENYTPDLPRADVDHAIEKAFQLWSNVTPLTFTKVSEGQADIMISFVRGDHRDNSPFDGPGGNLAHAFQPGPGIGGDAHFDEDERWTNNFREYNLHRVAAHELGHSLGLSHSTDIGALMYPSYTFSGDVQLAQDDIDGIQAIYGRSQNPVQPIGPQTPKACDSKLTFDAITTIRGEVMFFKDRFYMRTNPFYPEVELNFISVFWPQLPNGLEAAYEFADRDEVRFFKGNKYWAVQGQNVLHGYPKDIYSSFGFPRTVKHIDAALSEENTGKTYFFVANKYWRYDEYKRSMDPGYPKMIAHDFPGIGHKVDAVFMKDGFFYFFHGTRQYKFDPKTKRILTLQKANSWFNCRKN
UniProt P14780, 107-707 limits assumed: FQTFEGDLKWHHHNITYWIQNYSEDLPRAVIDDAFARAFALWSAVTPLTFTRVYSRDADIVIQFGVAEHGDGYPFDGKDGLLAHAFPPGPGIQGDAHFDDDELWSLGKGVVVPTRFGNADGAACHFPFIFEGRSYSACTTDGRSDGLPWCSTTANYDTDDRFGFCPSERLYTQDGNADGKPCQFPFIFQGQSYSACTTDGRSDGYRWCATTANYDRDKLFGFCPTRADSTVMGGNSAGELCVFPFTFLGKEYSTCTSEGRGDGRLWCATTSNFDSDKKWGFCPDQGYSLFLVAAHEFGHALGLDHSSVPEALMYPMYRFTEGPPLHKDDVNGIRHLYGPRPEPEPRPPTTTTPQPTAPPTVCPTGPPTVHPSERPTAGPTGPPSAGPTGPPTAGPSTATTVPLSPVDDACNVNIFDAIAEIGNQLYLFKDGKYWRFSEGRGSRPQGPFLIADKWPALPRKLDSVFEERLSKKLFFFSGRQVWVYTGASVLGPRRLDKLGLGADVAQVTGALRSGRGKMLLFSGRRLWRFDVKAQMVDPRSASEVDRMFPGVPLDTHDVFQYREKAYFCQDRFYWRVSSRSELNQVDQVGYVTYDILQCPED

Key:
Type in all cases: biochemical
MMP-13 = MMP-13 (Homo sapiens, UniProt P45452); experiment: MMP-13 inhibition (in vitro Ki); conditions: read-out: MMP-13 Ki (IC-50); Table 9; tested form: HCl
MMP-2 [1] = molecular target: T1, MMP-2 (Homo sapiens, UniProt P08253); experiment: MMP-2 inhibition (in vitro Ki); conditions: read-out: MMP-2 Ki (IC-50); Table 9; tested form: HCl
MMP-14 [2] = molecular target: T2, MMP-14 (Homo sapiens, UniProt P50281); experiment: MMP-14 inhibition (in vitro Ki); conditions: read-out: MMP-14 Ki (IC-50); Table 9; tested form: HCl
MMP-1 [3] = molecular target: T3, MMP-1 (Homo sapiens, UniProt P03956); experiment: MMP-1 inhibition (in vitro Ki); conditions: read-out: MMP-1 Ki (IC-50); Table 9; tested form: HCl
MMP-9 [4] = molecular target: T4, MMP-9 (Homo sapiens, UniProt P14780); experiment: MMP-9 inhibition (in vitro Ki); conditions: read-out: MMP-9 Ki (IC-50); Table 9; tested form: HCl
MMP-14 [5] = molecular target: T2, MMP-14; experiment: In vitro MMP inhibition, Ki determination (fluorogenic substrate II); conditions: read-out: MMP-14 Ki, value not in parenthesis
MMP-9 [6] = molecular target: T4, MMP-9; experiment: as above; conditions: read-out: MMP-9 Ki, value not in parenthesis
MMP-1 [7] = molecular target: T3, MMP-1; experiment: as above; conditions: read-out: MMP-1 Ki, value not in parenthesis
MMP-2 [8] = molecular target: T1, MMP-2; experiment: as above; conditions: read-out: MMP-2 Ki, value not in parenthesis

Compound | Ki (MMP-13) [nM] | Ki (MMP-2 [1]) [nM] | Ki (MMP-14 [2]) [nM] | Ki (MMP-1 [3]) [nM] | Ki (MMP-9 [4]) [nM] | Ki (MMP-14 [5]; tested form: 2HCl) [nM] | Ki (MMP-9 [6]; tested form: 2HCl) [nM] | Ki (MMP-1 [7]; tested form: 2HCl) [nM] | Ki (MMP-2 [8]; tested form: 2HCl) [nM] | further results
O=C(NO)C1(S(=O)(=O)N2CCC(c3ncc(CCCCCC(F)(F)F)s3)CC2)CCOCC1 | 0.53 | 1.44 | 577 | > 10000 | 32.9 | – | – | – | – | –
CCCCc1cnc(N2CCN(S(=O)(=O)C3(C(=O)NO)CCN(CCOC)CC3)CC2)cn1 | – | – | – | – | – | 7890 | 0.73 | > 10000 | 2.46 | –
CCCCOc1ccc(N2CCN(S(=O)(=O)C3(C(=O)NO)CCN(C(=O)N4CCN(CC)C(=O)C4=O)CC3)CC2)cc1 | – | – | – | – | – | 1790 | 1.11 | 8270 | 0.52 | –
C=CCC(CC=C)(C(=O)NO)S(=O)(=O)N1CCC(c2ccc(CCC(F)(F)C(F)(F)F)cn2)CC1 | 0.82 | 2.04 | 6540 | 8590 | 1.01 | – | – | – | – | –
Cc1sc(C2CCN(S(=O)(=O)C3(C(=O)NO)CCOCC3)CC2)nc1-c1ccccc1 | 4140 | 6130 | > 10000 | > 10000 | > 10000 | – | – | – | – | –
CCCCCCc1ccc(N2CCN(S(=O)(=O)C3(C(=O)NO)CCOCC3)CC2)nc1 | – | – | – | – | – | – | – | – | – | Ki (MMP-14 [5]; tested form: HCl): 1430 nM; Ki (MMP-9 [6]; tested form: HCl): 0.657 nM; Ki (MMP-1 [7]; tested form: HCl): > 10000 nM; Ki (MMP-2 [8]; tested form: HCl): 0.169 nM
CCCCOc1ccc(N2CCN(S(=O)(=O)C3(C(=O)NO)CCN(S(=O)(=O)c4cccs4)CC3)CC2)cc1 | – | – | – | – | – | 9800 | 16.4 | > 10000 | 6.3 | –
COCCN1CCC(C(=O)NO)(S(=O)(=O)N2CCN(c3ccc(OC(F)(F)C(F)F)cc3)CC2)CC1 | – | – | – | – | – | 1160 | 0.44 | 3360 | 0.1 | –
COCCN1CCC(C(=O)NO)(S(=O)(=O)N2CCN(c3ccc(OCC(F)(F)F)nn3)CC2)CC1 | – | – | – | – | – | > 10000 | 112 | > 10000 | 47.3 | –
Cc1csc(-c2ccc(C3CCN(S(=O)(=O)C4(C(=O)NO)CCOCC4)CC3)nc2)c1 | 0.15 | 0.48 | 859 | 1220 | 6.59 | – | – | – | – | –
CCCCCCc1cnc(C2CCN(S(=O)(=O)C3(C(=O)NO)CCOCC3)CC2)s1 | 0.61 | 1.25 | 554 | > 10000 | 6.93 | – | – | – | – | –
